By UniProt entry, the sequences of proteins in these tests, tags left out. Residues count along the entry.
UniProt P25774, 115-331: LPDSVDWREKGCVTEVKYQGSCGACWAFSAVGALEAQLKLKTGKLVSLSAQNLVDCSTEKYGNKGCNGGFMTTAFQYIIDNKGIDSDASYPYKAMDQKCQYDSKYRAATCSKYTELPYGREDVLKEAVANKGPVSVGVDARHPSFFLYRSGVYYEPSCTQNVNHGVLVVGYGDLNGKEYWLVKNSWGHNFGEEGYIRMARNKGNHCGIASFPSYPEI

Each molecule was assayed against Recombinant human cathepsin S (CatS) (Homo sapiens, UniProt P25774) (assay: biochemical).
For CS(=O)(=O)N1CCc2c(c(-c3ccc(C(F)(F)F)c(SCC(=O)N4CCOCC4)c3)nn2CC(O)CN2CCC(c3n[nH]c(=O)[nH]3)CC2)C1 (stereo not shown) [Example 750, 5-(1-{2-Hydroxy-3-[5-(methylsulfonyl)-3-{3-[(2-morpholin-4-yl-2-oxoethyl)sulfanyl]-4-(trifluoromethyl)phenyl}-4,5,6,7-tetrahydro-1H-pyrazolo[4,3-c]pyridin-1-yl]propyl}piperidin-4-yl)-2,4-dihydro-3H-1,2,4-triazol-3-one], the IC50 was 35 nM. In the case of CS(=O)(=O)N1CCc2c(c(-c3ccc(C(F)(F)F)c(SCCN4CCCC4)c3)nn2CC(O)CN2CCC(N3CC(O)CC3=O)CC2)C1 (stereo not shown) [Example 685, 4-Hydroxy-1-(1-{2-hydroxy-3-[5-(methylsulfonyl)-3-{3-[(2-pyrrolidin-1-ylethyl)sulfanyl]-4-(trifluoromethyl)phenyl}-4,5,6,7-tetrahydro-1H-pyrazolo[4,3-c]pyridin-1-yl]propyl}piperidin-4-yl)pyrrolidin-2-one], the IC50 is reported as 180 nM. For Cc1noc(C2CCN(CC(O)Cn3nc(-c4ccc(C(F)(F)F)c(SCC(=O)N5CCOCC5)c4)c4c3CCN(S(C)(=O)=O)C4)CC2)n1 (stereo not shown) [Example 747, 1-[4-(3-Methyl-1,2,4-oxadiazol-5-yl)piperidin-1-yl]-3-[5-(methylsulfonyl)-3-{3-[(2-morpholin-4-yl-2-oxoethyl)sulfanyl]-4-(trifluoromethyl)phenyl}-4,5,6,7-tetrahydro-1H-pyrazolo[4,3-c]pyridin-1-yl]propan-2-ol], the IC50 was 20 nM. CS(=O)(=O)N1CCc2c(c(-c3ccc(C(F)(F)F)c(SCC(=O)N4CC[C@@H](O)C4)c3)nn2CC(O)CN2CCCCC2)C1 (stereo partly drawn) [Example 390, (3R)-1-[({5-[1-(2-Hydroxy-3-piperidin-1-ylpropyl)-5-(methylsulfonyl)-4,5,6,7-tetrahydro-1H-pyrazolo[4,3-c]pyridin-3-yl]-2-(trifluoromethyl)phenyl}sulfanyl)acetyl]pyrrolidin-3-ol] showed an IC50 of 280 nM. Work on CCS(=O)(=O)NC1CCN(CC(O)Cn2nc(-c3ccc(C(F)(F)F)c(SCCN4CCCC4)c3)c3c2CCN(S(C)(=O)=O)C3)CC1 (stereo not shown) [Example 715, N-(1-{2-Hydroxy-3-[5-(methylsulfonyl)-3-{3-[(2-pyrrolidin-1-ylethyl)sulfanyl]-4-(trifluoromethyl)phenyl}-4,5,6,7-tetrahydro-1H-pyrazolo[4,3-c]pyridin-1-yl]propyl}piperidin-4-yl)ethanesulfonamide] yielded an IC50 of 680 nM. For CS(=O)(=O)N1CCc2c(c(-c3ccc(C(F)(F)F)c(SCC(=O)N4CC[C@@H](O)C4)c3)nn2CC(O)CN2CCN(c3ccc(F)cc3)CC2)C1 (stereo partly drawn) [Example 789, (3R)-1-[({5-[1-{3-[4-(4-Fluorophenyl)piperazin-1-yl]-2-hydroxypropyl}-5-(methylsulfonyl)-4,5,6,7-tetrahydro-1H-pyrazolo[4,3-c]pyridin-3-yl]-2-(trifluoromethyl)phenyl}sulfanyl)acetyl]pyrrolidin-3-ol], the IC50 was 50 nM. Molecule CC(=O)N1CCN(CCSc2cc(-c3nn(CC(O)CN4CCCCC4)c4c3CN(S(C)(=O)=O)CC4)ccc2C(F)(F)F)CC1 (stereo not shown) [Example 187, 1-{3-[3-{[2-(4-Acetylpiperazin-1-yl)ethyl]sulfanyl}-4-(trifluoromethyl)phenyl]-5-(methylsulfonyl)-4,5,6,7-tetrahydro-1H-pyrazolo[4,3-c]pyridin-1-yl}-3-piperidin-1-ylpropan-2-ol] has an IC50 of 1040 nM. CS(=O)(=O)N1CCc2c(c(-c3ccc(C(F)(F)F)c(SCCN4CCC(F)CC4)c3)nn2CC(O)CN2CC[C@H](O)C2)C1 (stereo partly drawn) [Example 413, (3S)-1-(3-{3-[3-{[2-(4-Fluoropiperidin-1-yl)ethyl]sulfanyl}-4-(trifluoromethyl)phenyl]-5-(methylsulfonyl)-4,5,6,7-tetrahydro-1H-pyrazolo[4,3-c]pyridin-1-yl}-2-hydroxypropyl)pyrrolidin-3-ol] showed an IC50 of 390 nM. CCN(CC)C(=O)C1CCCN(CCSc2cc(-c3nn(CCCN4CCC(N5CCCC5=O)CC4)c4c3CN(S(C)(=O)=O)CC4)ccc2C(F)(F)F)C1 (stereo not shown) [Example 52, 1-{2-[5-(5-Methanesulfonyl-1-{3-[4-(2-oxo-pyrrolidin-1-yl)-piperidin-1-yl]-propyl}-4,5,6,7-tetrahydro-1H-pyrazolo[4,3-c]pyridin-3-yl)-2-trifluoromethyl-phenylsulfanyl]-ethyl}-piperidine-3-carboxylic acid diethylamide] gave an IC50 of 2120 nM. Work on COc1ccccc1C1CCN(CC(O)Cn2nc(-c3ccc(C(F)(F)F)c(SCCN4CCOCC4)c3)c3c2CCN(S(C)(=O)=O)C3)CC1 (stereo not shown) [Example 779, 1-{4-[2-(Methyloxy)phenyl]piperidin-1-yl}-3-[5-(methylsulfonyl)-3-{3-[(2-morpholin-4-ylethyl)sulfanyl]-4-(trifluoromethyl)phenyl}-4,5,6,7-tetrahydro-1H-pyrazolo[4,3-c]pyridin-1-yl]propan-2-ol] yielded an IC50 of 40 nM. CS(=O)(=O)N1CCc2c(c(-c3ccc(C(F)(F)F)c(SCCN4CCC5CCCCC5C4)c3)nn2CCCN2CCC(N3CCCC3=O)CC2)C1 (stereo not shown) [Example 6, 1-{1-[3-(5-Methanesulfonyl-3-{3-[2-(octahydro-isoquinolin-2-yl)-ethylsulfanyl]-4-trifluoromethyl-phenyl}-4,5,6,7-tetrahydro-pyrazolo[4,3-c]pyridin-1-yl)-propyl]-piperidin-4-yl}-pyrrolidin-2-one] showed an IC50 of 60 nM. CS(=O)(=O)N1CCc2c(c(-c3ccc(C(F)(F)F)c(SCCN4CCOCC4)c3)nn2CC(O)CN2CCCC2)C1 (stereo not shown) [Example 328, 1-[5-(Methylsulfonyl)-3-{3-[(2-morpholin-4-ylethyl)sulfanyl]-4-(trifluoromethyl)phenyl}-4,5,6,7-tetrahydro-1H-pyrazolo[4,3-c]pyridin-1-yl]-3-pyrrolidin-1-ylpropan-2-ol] gave an IC50 of 830 nM. For CC(=O)N1CCN(CCSc2cc(-c3nn(CC(O)CN4CCN(c5ccccc5O)CC4)c4c3CN(S(C)(=O)=O)CC4)ccc2C(F)(F)F)CC1 (stereo not shown) [Example 859, 2-[4-(3-{3-[3-{[2-(4-Acetylpiperazin-1-yl)ethyl]sulfanyl}-4-(trifluoromethyl)phenyl]-5-(methylsulfonyl)-4,5,6,7-tetrahydro-1H-pyrazolo[4,3-c]pyridin-1-yl}-2-hydroxypropyl)piperazin-1-yl]phenol], the IC50 was 110 nM. Work on C[C@H]1COCCN1CC(O)Cn1nc(-c2ccc(C(F)(F)F)c(SCC(=O)N3CCOCC3)c2)c2c1CCN(S(C)(=O)=O)C2 (stereo partly drawn) [Example 466, 1-[(3S)-3-Methylmorpholin-4-yl]-3-[5-(methylsulfonyl)-3-{3-[(2-morpholin-4-yl-2-oxoethyl)sulfanyl]-4-(trifluoromethyl)phenyl}-4,5,6,7-tetrahydro-1H-pyrazolo[4,3-c]pyridin-1-yl]propan-2-ol] yielded an IC50 of 300 nM. Molecule CS(=O)(=O)N1CCc2c(c(-c3ccc(C(F)(F)F)c(SCC(=O)NCc4ccccc4)c3)nn2CCCN2CCC(N3CCCC3=O)CC2)C1 [Example 102, N-Benzyl-2-[5-(5-methanesulfonyl-1-{3-[4-(2-oxo-pyrrolidin-1-yl)-piperidin-1-yl]-propyl}-4,5,6,7-tetrahydro-1H-pyrazolo[4,3-c]pyridin-3-yl)-2-trifluoromethyl-phenylsulfanyl]-acetamide] has an IC50 of 370 nM. Work on CS(=O)(=O)N1CCc2c(c(-c3ccc(C(F)(F)F)c(SCCN4CCOCC4)c3)nn2CC(O)CN2CCC(O)CC2)C1 (stereo not shown) [Example 406, 1-{2-Hydroxy-3-[5-(methylsulfonyl)-3-{3-[(2-morpholin-4-ylethyl)sulfanyl]-4-(trifluoromethyl)phenyl}-4,5,6,7-tetrahydro-1H-pyrazolo[4,3-c]pyridin-1-yl]propyl}piperidin-4-ol] yielded an IC50 of 550 nM.

From US20090099157A1, “TETRAHYDRO-PYRAZOLO-PYRIDINE THIOETHER MODULATORS OF CATHEPSIN S” (priority 2007, published 2009)
